# Apparent affinities of Ab-14 variants for a coronavirus HR2 peptide

The measurements come from Engelhart et al. 2022 (doi:10.1038/s41597-022-01779-4) through the FLAb antibody collection.

Binding partner: SARS-CoV-2 spike HR2 peptide, sequence PDVDLGDISGINAS.

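The parent was found by panning a naive human phage display library on the peptide. The library (AAYL50) carries one to three amino acid substitutions per variant, with no insertions or deletions. Affinity was read by AlphaSeq, a pooled yeast mating assay with surface-displayed partners. After mating in shaken culture at 30 °C for 16 h, diploids were selected and their barcode pairs sequenced. Read counts were normalised to the haploid input and turned into Kd by a linear fit to BCL2-family pairs of known affinity, for each replicate. Each pool was mated in three replicate cultures.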

Ab-14 is the parent antibody, in scFv form: VH, then three GGGGS repeats, then VL. The heavy chain is unchanged in all variants.
VH: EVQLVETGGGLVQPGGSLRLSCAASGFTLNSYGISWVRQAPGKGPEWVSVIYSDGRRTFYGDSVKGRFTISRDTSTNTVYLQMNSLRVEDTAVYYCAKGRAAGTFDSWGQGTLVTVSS
VL: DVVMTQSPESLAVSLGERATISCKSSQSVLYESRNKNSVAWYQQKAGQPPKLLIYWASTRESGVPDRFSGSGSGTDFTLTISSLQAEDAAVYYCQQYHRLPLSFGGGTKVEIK

The parent's light chain CDRs are KSSQSVLYESRNKNSVA, WASTRES, QQYHRLPLS; each variant's own CDRs replace them letter for letter.
Each Kd is an estimate from the mating assay, the geometric mean of the replicates in which the pair was seen; lower is stronger.
"nd" marks a missing value. The strain was present, yet no cells mated with the target were sequenced in any replicate, which points to weak or no binding.
In this assay the parent's reference entry averaged 4.4 nM; its copy inside this library read 48 nM.
As a blank, each scFv also met three strains without target: over library AAYL50, 18% of these pairings were detected, typically at 15 µM and seldom below 970 nM. The control count says in how many pairings with the empty strains this scFv gave a signal.

CDR-L1 | CDR-L2 | CDR-L3 | Kd | replicates with signal | empty controls
KSLQSVLYESRNKNSVR | WASTWES | QQYHRLPLS | 6.8 µM | 1/3 | 0/9
KSSQSVLYESRNKNSVA | WATQRES | QQYHRPPLS | 140 nM | 3/3 | 4/9
KSSQSVLYGSRNKNSTA | WASTREY | QQYHRLPLS | 52 µM | 1/3 | 1/9
KSSQSVLYESRNMNSVA | NASTRES | QQYHDLPLS | 3.8 nM | 3/3 | 0/9
KCSMSVLYESRNKNSVA | WAYTRES | QQYHRLPLS | 18 nM | 3/3 | 0/9
KSSQSVLYESANKNSVA | DASTRES | YQYHRLPLS | 7.0 nM | 3/3 | 4/9
KSSQSVLYESRNKNSVA | WASTRTM | QQYHRLWLS | 17 nM | 3/3 | 2/9
KSSQSVLYESLMKNSVA | WASTRES | QQYHRLPLS | 3.5 nM | 3/3 | 7/9
KSSQSFLYESRNKNSVA | WTSTPES | QQYHRLPLS | 3.2 µM | 3/3 | 3/9
KSSQSVLYASRNKNSVA | WASTVES | QIYHRLPLS | 1.2 µM | 3/3 | 4/9
KSSQSVLYESRNENSVA | WASTRES | QQYHALPLS | 3.9 nM | 3/3 | 0/9
KSSQSVLYASRNKNSVA | WASTRES | QQYHRLSKS | 11 µM | 2/3 | 3/9
KSSLSVLYESRNKNKVA | WASTRES | TQYHRLPLS | nd | 0/3 | 1/9
KSSQSVLYESRNKNAVA | WASTRES | QCRHRLPLS | nd | 0/3 | 2/9
KSSQSVLYESNNKNSVA | WASTNES | QQYARLPLS | 1.8 µM | 3/3 | 3/9
KSSQSVLSESRNKNSVA | WASTRTS | QQYHRLPLI | 8.5 nM | 3/3 | 6/9
KSSQSVLYESINENSVA | WASTRES | QQYHRLYLS | 230 µM | 1/3 | 3/9
KSWQSVLYESGNKNSVA | WASTRES | QQYHKLPLS | 15 µM | 2/3 | 7/9
KSSQSVLYTSRNQNSVD | WASTRES | QQYHRLPLS | nd | 0/3 | 1/9
KSSQSVLHISRNKNSVA | WRSTRES | QQYHRLPLS | 140 µM | 1/3 | 3/9
KSSQSVLPESRNKNEPA | WASTRES | QQYHRLPLS | 31 µM | 1/3 | 1/9
KSSQSVLYESRNENCVA | WASARES | QQYHRLPLS | 4.2 µM | 3/3 | 2/9
KLSQSVLYESRNKNSVA | WASTRPS | QQYHRLFLS | nd | 0/3 | 0/9
KSSQSVLYEYRNKNMVA | WWSTRES | QQYHRLPLS | nd | 0/3 | 1/9
KSSQSVLYESRNKNSVA | WQSTREL | QQYHRLFLS | 1.2 µM | 3/3 | 2/9
KSSQSVLYESRNKNSVA | YASTGEI | QQYHRLPLS | 15 µM | 1/3 | 2/9
KSSQSVLYESRVKNSWA | WASCRES | QQYHRLPLS | 4.9 µM | 1/3 | 2/9
KSNQSVLYESRNKNSVA | WPSTHES | QQYHRLPLS | nd | 0/3 | 0/9
KWSQSVLYESRNKNSVA | WASTREY | QQYHRLPNS | 44 nM | 3/3 | 1/9
DSSQSVLYSSRNKNSVA | WASTRES | QQYYRLPLS | 37 nM | 3/3 | 5/9
KSSQSVLYEDRNKNSVA | WASTRES | QQYHELPLS | 160 nM | 3/3 | 2/9
GSSQSVLYEARNKNSVC | WASTRES | QQYHRLPLS | 50 µM | 1/3 | 2/9
KSSPSVLYESRNKNSVA | WADTRLS | QQYHRLPLS | 3.2 nM | 3/3 | 3/9
KSSQSVLYMSRNKNSVA | WASTRES | QQYYRLPNS | nd | 0/3 | 0/9
KSSQSVLYESRNKNSVA | SASTRES | QQFHRLPLS | 1.8 nM | 3/3 | 3/9
KSSQSVLTESRNDNSVW | WASTRES | QQYHRLPLS | nd | 0/3 | 0/9
KSSKSVLYEGRNYNSVA | WASTRES | QQYHRLPLS | 3.3 nM | 3/3 | 0/9
KSSQSVLYESRNKNSVA | WAMTRES | QQYHRQPLS | nd | 0/3 | 0/9
KSSQSVLWEYRNKNSVA | WASTRES | QPYHRLPLS | 37 nM | 3/3 | 1/9
KSSQSVLYESRNKNSVA | KASTRIS | QQKHRLPLS | 150 nM | 3/3 | 1/9
KSSQKVLYESRNKNSVA | WASTRES | QQGHNLPLS | 67 µM | 2/3 | 5/9
KSSQSVLYESRLKNSVA | WLSTGES | QQYHRLPLS | nd | 0/3 | 0/9
KSSKSVLYEIRNKLSVA | WASTRES | QQYHRLPLS | 220 nM | 3/3 | 2/9
KSSRSVLYESRNKNSVA | WASTRES | KQYHRLPLS | 30 µM | 2/3 | 3/9
KSSQSVTYESRNKNSVA | WASTRES | QQQQRLPLS | nd | 0/3 | 0/9
KSSQSVLYESRNKGSVA | WASTRES | QQYHRCPLR | 4.2 µM | 1/3 | 0/9
KSSQWVLYESRNKNSVA | WASTRER | FQYHRLPLS | nd | 0/3 | 0/9
KSSQSVLFESRNVNSVA | WASTRES | QQYHRLVLS | 33 µM | 1/3 | 1/9
KSSQSVLYESRNGNSVA | WAHTRES | QQYHRLPNS | 20 nM | 3/3 | 0/9
KSSQSVLYESRNRNQVA | WASTRES | QQYHRLPQS | 120 µM | 3/3 | 2/9
KSSQTVLYEVRNKNSVA | WAITRES | QQYHRLPLS | nd | 0/3 | 0/9

Extract of 7 entries:

| CDR-L1 | CDR-L2 | CDR-L3 | Kd | replicates with signal | empty controls |
|---|---|---|---|---|---|
| KSSQSVLYESRNKNSVA | WATQRES | QQYHRPPLS | 140 nM | 3/3 | 4/9 |
| KSSQSVLYESINENSVA | WASTRES | QQYHRLYLS | 230 µM | 1/3 | 3/9 |
| KSSQSVLYESRNKNAVA | WASTRES | QCRHRLPLS | nd | 0/3 | 2/9 |
| KSSKSVLYEGRNYNSVA | WASTRES | QQYHRLPLS | 3.3 nM | 3/3 | 0/9 |
| KSSQSVLHISRNKNSVA | WRSTRES | QQYHRLPLS | 140 µM | 1/3 | 3/9 |
| KSSQSVLYESRNKNSVA | SASTRES | QQFHRLPLS | 1.8 nM | 3/3 | 3/9 |
| GSSQSVLYEARNKNSVC | WASTRES | QQYHRLPLS | 50 µM | 1/3 | 2/9 |